The text below walks through data of patent US12029739B2, “SHP2 inhibitor and use thereof” (KANAPH THERAPEUTICS INC., priority 2021, dated 2024).

Chains of the proteins cited; added tags and fusions are not shown.
UniProt Q06124, whole entry: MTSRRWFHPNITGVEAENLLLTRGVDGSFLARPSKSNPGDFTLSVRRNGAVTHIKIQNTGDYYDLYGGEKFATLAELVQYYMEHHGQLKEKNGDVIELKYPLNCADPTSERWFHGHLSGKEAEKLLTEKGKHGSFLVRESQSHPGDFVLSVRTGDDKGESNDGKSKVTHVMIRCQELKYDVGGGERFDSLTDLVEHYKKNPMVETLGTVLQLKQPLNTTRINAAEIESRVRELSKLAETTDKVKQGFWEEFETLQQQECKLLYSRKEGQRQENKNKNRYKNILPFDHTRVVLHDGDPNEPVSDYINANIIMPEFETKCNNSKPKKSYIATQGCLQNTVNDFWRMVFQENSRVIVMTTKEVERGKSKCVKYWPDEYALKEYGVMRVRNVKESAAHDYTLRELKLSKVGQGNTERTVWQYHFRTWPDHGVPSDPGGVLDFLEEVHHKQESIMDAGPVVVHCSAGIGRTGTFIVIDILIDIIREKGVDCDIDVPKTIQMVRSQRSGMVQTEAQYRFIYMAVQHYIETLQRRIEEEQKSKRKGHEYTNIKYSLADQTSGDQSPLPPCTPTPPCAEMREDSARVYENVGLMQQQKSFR

In assay [1] the test system is phospho-ERK in MIA PaCa2 or H358 cells. Briefly: Phospho-ERK assay (AlphaLisa). Particulars: read-out: IC50 (p-ERK), compound incubated 1.5 hours. In kind it is cell-based.
The target in a further assay is SHP2 (full length) (Homo sapiens, UniProt Q06124). Description: Phosphatase assay (PTPase assay) with DiFMUP substrate. In kind it is biochemical. Particulars: read-out: IC50 (PTPase aS say); SHP2 activated with SHP2 activating peptide; DiFMUP 80 μM, 2 hours; fluorescence.

Some results are limits rather than exact numbers.

One may read the IC50 as the concentration needed to halve the response being measured. `C[C@@H]1OCC2(CCN(c3cnc4c(Sc5ccc6ncn(CC7CCOC7)c(=O)c6c5Cl)n[nH]c4n3)CC2)[C@@H]1N` (some centres unmarked): the IC50 is 45 to 1500 nM in assay [1] and < 3 nM on SHP2 (full length).
